Laboratory results from patent US5990096A, “Formulations containing hyaluronic acid” (priority 1992, dated 1999).

Tested on: Fisher Bladder Carcinoma
Details: rat, in vivo, iv

hyaluronic acid
Effect on 5-FU uptake in tumor tissue: HA can enhance 5-FU uptake in tumor tissue
